Sequences of proteins named here, by UniProt entry; tags and fusion partners are left off. Residues count along the entry.
UniProt Q96PD4, 31-163: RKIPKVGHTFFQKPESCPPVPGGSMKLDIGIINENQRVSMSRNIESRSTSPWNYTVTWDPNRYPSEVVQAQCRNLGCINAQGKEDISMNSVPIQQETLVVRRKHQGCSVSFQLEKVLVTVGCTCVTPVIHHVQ
UniProt Q16552, 24-155: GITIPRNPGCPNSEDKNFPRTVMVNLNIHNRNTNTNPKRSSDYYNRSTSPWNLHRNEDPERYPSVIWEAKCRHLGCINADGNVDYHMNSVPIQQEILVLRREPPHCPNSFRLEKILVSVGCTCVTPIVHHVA

According to paper PMC7473305 (Frontiers in Immunology, 2020):

Assays:
[1] = target: T1, human IL-17F (R&D Systems) (Homo sapiens, UniProt Q96PD4); assay: SPR; Biacore T200, CM5 chip; Fab captured on immobilised anti-human F(ab')2; cytokine titrated over it; HBS-EP pH 7.4, 25°C; conditions: both partners purified
T1 construct: interleukin-17F, human; Used in SPR; the functional rows are written on this molecule; source: bought: R&D Systems

[2] = target: T2, human IL-17A (generated at UCB) (Homo sapiens, UniProt Q16552); assay: as above; conditions: both partners purified
T2 construct: interleukin-17A, human; The expression method is told for the neutralization bioassay; Residues of the TEV site may be left at the C-terminus; also called Interleukin-17A; source: generated at UCB; CHO-S XE cells, transient, purified (Protein A, Fc removed with TEV protease, SEC of the dimer); not shown: Fc (human IgG1), C-terminal, cleaved

B1: 496.g1 Fab (Fab, V domains shown)
VH: EVQLVESGGGLVQPGGSLRLSCAASGFTFSDYNMAWVRQAPGKGLEWVATITYEGRNTYYRDSVKGRFTISRDNAKNSLYLQMNSLRAEDTAVYYCASPPQYYEGSIYRLWFAHWGQGTLVTVSS
VL: AIQLTQSPSSLSASVGDRVTITCRADESVTTLMHWYQQKPGKAPKLLIYLVSNRESGVPSRFSGSGSGTDFTLTISSLQPEDFATYYCQQTWSDPWTFGQGTKVEIK
[1]
  koff: 0.00603 s⁻¹
  kon: 4e+06 M⁻¹ s⁻¹
[2]
  koff: 5.63e-05 s⁻¹
  kon: 1.93e+06 M⁻¹ s⁻¹
